Earlier results on two substances are cited in US8273787B2, “Activated cytotoxic compounds for attachment to targeting molecules for the treatment of mammalian disease conditions” (Onconova Therapeutics, Inc, priority 2006, dated 2012).

The series relates to xenograft. Particulars: weekly i.p. doses of 4 mg/kg over four months; cited from earlier work.

For the substance “Trastuzumab-Geldanamycin: immunoconjugates composed of HERCEPTIN (Trastuzumab) and the cytotoxin Geldanamycin, reported by NCI groups [reference compound]”, the Median survival time is recorded as 145 days, the “mice tumor free two months after treatment had been completed” value is on record as “nearly one-third” and the tumor regression is 69%.
On to “Trastuzumab: Humanized mAb to epidermal growth factor receptor 2 (HER2/ErbB2)”, for which the Median survival time is on record as 78 days, the “mice tumor free two months after treatment had been completed” value is listed as “no survivors” and the tumor regression is on record as 7%.
